The text below walks through data of patent publication US20150004134A1, “TREATMENT OF CANCER WITH HETEROCYCLIC INHIBITORS OF GLUTAMINASE” (Calithera Biosciences, Inc., priority 2012, published 2015).

Structures are written as SMILES.

Usually IC50 stands for the concentration that inhibits the measured activity by half.

The test system of the assay is P493-6 (myc "on") cells. Description: Cell Proliferation Assay. The format is cell-based. To be noted: P493-6, 72 h, read-out: Cell prolif P493 72 h IC50, P493 cells, 72 h. The method, then:
P493-6 (myc “on”) cells were maintained in growth media (RPMI-1640, 10% FBS, 2 mM glutamine, 100 units/ml Penicillin and 100 μg/ml streptomycin) at 37° C. with 5% CO2. For compound assay, P493-6 cells were plated in 96-well V-bottom plates on the day of compound addition in 50 μl of growth media at a cell density of 200,000 cells/ml (10,000 cells/well). Compounds were serially diluted in 100% DMSO at 200-times the final concentration. Compounds were diluted 100-fold into growth media and then 50 μl of this mixture was added to cell plates making the final concentration of DMSO 0.5%. Cells were incubated with compound for 72 hrs at 37° C. with 5% CO2 and analyzed for antiproliferative effects either by Cell Titer Glo (Promega) or FACS analysis using the Viacount (Millipore) kit on the Guava instrument.

In the case of `O=C(Cc1ccccc1)Nc1ccc(CCCCc2nnc(NC(=O)[C@H](O)c3ccccc3)s2)nn1` [Compound 349], the IC50 was 120 nM.
